# Binding of CDR-mutated scFvs to a peptide of the spike HR2 region

Target: peptide PDVDLGDISGINAS, taken from heptad repeat 2 (HR2) of SARS-CoV-2 spike.

The variants keep the light chain, the linker and the frameworks of Ab-14 (scFv order VH, the linker GGGGSGGGGSGGGGS, VL).
VH: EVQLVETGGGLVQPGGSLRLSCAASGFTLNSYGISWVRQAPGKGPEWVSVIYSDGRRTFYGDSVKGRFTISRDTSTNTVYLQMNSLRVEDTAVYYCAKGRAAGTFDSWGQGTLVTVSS
VL: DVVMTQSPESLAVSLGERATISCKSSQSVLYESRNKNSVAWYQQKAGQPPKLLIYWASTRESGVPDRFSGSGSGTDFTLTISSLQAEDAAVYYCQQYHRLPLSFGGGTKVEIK

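The starting antibody came from a phage panning campaign against this peptide. The variants were designed computationally from a first round of random CDR variants and then made and measured. Group labels follow the data file (Rand: our label for a block that the file lists under HC and that is probably the random mutants of the ten best first-round binders; En: ensemble of fine-tuned language models; HC: hill climbing; Gen: genetic algorithm; Gibbs: Gibbs sampling; a sequence that several methods proposed may carry one label only). The assay is AlphaSeq: two haploid yeast populations carry antibody and antigen on their surface. The frequency of each diploid, read from paired DNA barcodes, reflects how well the two displayed proteins bind. Each replicate has its own calibration line, from reference interactions of the BCL2 family. The assay was run in six technical replicates.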

Variants are written as CDR1, CDR2 and CDR3 of the heavy chain (limits as in the source). Parent: GFTLNSYGIS, VIYSDGRRTFYGDSVK, GRAAGTFDS. This list holds designs with more than six substitutions. Affinities are written as log10 Kd with Kd in nM; a lower number is a better binder. Averages over replicates are reported, and they cover detected replicates only. "nd" means that the variant was in the library but no mating with the target was seen in any replicate; the authors take this as a sign of poor binding, and no number exists. The authors averaged sequences with at least three values out of six and counted those with two or fewer as poor binders. As a blank, each scFv also met three strains without target: over all heavy chain designs, 1% of these pairings were detected, typically at 2.08 and seldom below 0.84. The parent sequence was in this pool as ten entries: three were never detected, three once, and four in most replicates, with averages from 0.34 to 2.37. The range of this assay differs from that of the first round, and the authors advise against merging the two.

* GFDLNEYGIS | VIYADGKRTAYTDSVK | GNVAGTFDM [En_Gen] = 0.03 (6 of 6 replicates)
* GFDLDEYGIS | VIYADGKRTVYADSVK | GNVAGTFDL [En_Gen] = 0.51 (6 of 6 replicates)
* GKSIEEYGIS | VIYADGQRNAYAETVK | GTNGGVFSY [En_Gibbs] = nd (0 of 6 replicates)
* GFDLDEYGIS | VIYADGRRTAYADSVK | GTNAGTFLS [En_HC] = 0.89 (6 of 6 replicates)
* GFGLDEYGIS | VIYADGKRTFYADSVK | GENAGTFDM [En_HC] = 1.67 (6 of 6 replicates)
* GFDLNEYGIS | VIYADGVRTAYIDSVK | GNVAGTFDQ [En_Gen] = -1.71 (6 of 6 replicates)
* GFEIQDYGIS | VIYADGLRTAYSDGFK | GIIAGTFNV [En_Gibbs] = 0.32 (6 of 6 replicates)
* GFDLNEYGIS | VIYADGRRTAYADSVK | GGNAGTFDS [En_HC] = -0.52 (6 of 6 replicates)
* GFDLNEYGIS | VIYADGVRTQYIDSVK | GETAGTFDV [En_HC] = 0.05 (6 of 6 replicates)
* GFDLDEYGIS | VIYADGMRTAYSDSVK | GEVAGTFDA [En_Gen] = 0.19 (5 of 6 replicates)
* GFDLNEYGIS | VIYADGKRTAYSDNVK | GEVAGTFDV [En_Gen] = -0.57 (6 of 6 replicates)
* GFDLNEYGIS | VIYADGVRTYYSDSVK | GENAGTFDV [En_Gen] = -0.39 (6 of 6 replicates)
* GFDLNEYGIS | VIYADGRRTFYIDSVK | GEIAGTFDM [En_HC] = -0.12 (6 of 6 replicates)
* GFNLEDYGIS | VIYADGKRMSYQEAVK | GQNSGVIVN [En_Gibbs] = nd (0 of 6 replicates)
* GFDLNEYGIS | VIYADGVRTAYADDVK | GNVAGTFDQ [En_Gen] = nd (0 of 6 replicates)
* GKGLDEYGIS | VIYADGMRTEYVQSVK | GDTGSIKFV [En_Gibbs] = nd (0 of 6 replicates)
* GFDLNEYGIS | VIYADGSRTAYADDVK | GTNAGTFDV [En_Gen] = -0.03 (6 of 6 replicates)
* GFDLNEYGIS | VIYADGRRTQYADSVK | GEIAGTFDS [En_HC] = nd (0 of 6 replicates)
* GFDLDEYGIS | VIYADGMRTVYSDSVK | GNVAGTFDV [En_Gen] = -0.86 (6 of 6 replicates)
* GFDLDEYGIS | VIYADGMRTAYSDNVK | GNVAGTFDL [En_Gen] = -0.16 (6 of 6 replicates)
* GEDLNEYGIS | VIYADGQRTAYDESVK | GKIAGSFFH [En_Gibbs] = 2.43 (1 of 6 replicates)
* GEDLDEYGIS | VIYADGRRVVYQDQVK | GELSGNFAQ [En_Gibbs] = 0.17 (6 of 6 replicates)
* TFTLNSYGIS | VIYSDGARTFYDDSTK | GQLAGTFDD [Rand] = 1.17 (1 of 6 replicates)
* GFDLNEYGIS | VIYADGRRTGYIDSVK | GEAAGTFDM [En_HC] = -0.25 (6 of 6 replicates)
* GFDLNEYGIS | VIYADGLRTSYADSVK | GQNAGTFDL [En_HC] = -0.26 (6 of 6 replicates)
* GFDIQDYGIS | VIYADGSRTAYTNSVK | GLTGAFAGL [En_Gibbs] = 3.03 (1 of 6 replicates)
* GFSLNEYGIS | VIYADGMRTEYAQNFK | GYNSSDLTV [En_Gibbs] = 1.72 (1 of 6 replicates)
* GFDLEDYGIS | VIYADGMRTAYADSVK | GETAGTFDL [En_Gen] = 0.44 (6 of 6 replicates)
* GFDLNEYGIS | VIYADGIRTAYSDSVK | GENAGTFDV [En_Gen] = -0.14 (6 of 6 replicates)
* GFDLNEYGIS | VIYADGSRTFYTDSVK | GENAGTFDV [En_HC] = -0.31 (6 of 6 replicates)
* GFDLDEYGIS | VIYADGMRTAYTDSVK | GEVAGTFDA [En_HC] = -0.47 (6 of 6 replicates)
* GFDLNEYGIS | VIYADGMRTAYTDSVK | GNQAGTFDM [En_Gen] = -0.17 (6 of 6 replicates)
* GFDLNEYGIS | VIYADGRRTQYIDSVK | GEVAGTFDT [En_HC] = 0.82 (6 of 6 replicates)
* GFDLNEYGIS | VIYADGRRTFYIDSVK | GAVAGTFDM [En_HC] = -0.47 (6 of 6 replicates)
* GFELDEYGIS | VIYADGKRKAYDDAVK | GFTLGVKLI [En_Gibbs] = -0.25 (6 of 6 replicates)
* GFDLNEYGIS | VIYADGMRTAYADDVK | GEVAGTFDQ [En_Gen] = -0.31 (6 of 6 replicates)
* GFNLDDMGIS | VIYADGERTAYSDSVK | GHEGGIMNV [En_Gibbs] = nd (0 of 6 replicates)
* GQLLDDYGIS | VIYADGKRVAYVDDVK | GNVAGTFDM [En_Gibbs] = -0.15 (6 of 6 replicates)
* GFDLNEYGIS | VIYADGMRTAYADSVK | GGEAGTFDV [En_Gen] = -0.42 (6 of 6 replicates)
* GFNLDEYGIS | VIYADGRRTFYADSVK | GQIAGTFDV [En_HC] = -0.49 (6 of 6 replicates)
* GFDLNEYGIS | VIYADGKRTAYGDSVK | GTNAGTFDQ [En_HC] = -0.16 (6 of 6 replicates)
* GFDIEEQGIS | VIYADGIRTFYSEKVK | GQNSNGFDM [En_Gibbs] = nd (0 of 6 replicates)
* GFDLDEYGIS | VIYADGRRTFYQDSVK | GNAAGTFDQ [En_HC] = -0.26 (6 of 6 replicates)
* GFDLNEYGIS | VIYADGQRVSYAQNVK | GLVGKLKVV [En_Gibbs] = nd (0 of 6 replicates)

Reference: Li et al. 2023, doi:10.1038/s41467-023-39022-2. File: FLAb, binding data.